For one test, the target named is T1, CCK2R (Rattus norvegicus, UniProt P30553).
T1 construct: 125I-BH-CCK8 to CCK2R (ii) on AR42J cells; endogenous in cells; host or cells: AR42J cells
T1 sequence (P30553 1-452): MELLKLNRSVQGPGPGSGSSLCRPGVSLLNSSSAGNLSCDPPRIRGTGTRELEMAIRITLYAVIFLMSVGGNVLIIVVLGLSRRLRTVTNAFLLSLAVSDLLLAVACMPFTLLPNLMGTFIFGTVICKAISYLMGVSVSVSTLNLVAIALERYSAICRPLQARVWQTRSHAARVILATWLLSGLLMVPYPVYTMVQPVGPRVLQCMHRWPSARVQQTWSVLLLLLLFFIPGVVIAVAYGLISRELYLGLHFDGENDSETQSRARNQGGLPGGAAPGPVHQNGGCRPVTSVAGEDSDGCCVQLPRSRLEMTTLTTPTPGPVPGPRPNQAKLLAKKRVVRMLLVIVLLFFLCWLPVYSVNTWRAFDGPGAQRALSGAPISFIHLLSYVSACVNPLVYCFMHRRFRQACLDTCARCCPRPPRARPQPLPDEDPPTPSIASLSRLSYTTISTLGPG
Description: Relative binding affinity, displacing binding of 125I-BH-CCK8 to CCK2R on AR42J cells. As to conditions: amidated gastrins; FIG. 2. From the text: Plot points represent mean values of triplicate measurements from a representative experiment. The nM concentrations of each peptide used are presented in a log-scale on the x-axis; the excess unlabeled peptide used for displacing the binding of the radio-labeled ligand is presented in parentheses.
Relative binding affinity (RBA) of gastrins for the 36 kDa Anx A2 protein, prepared from cancer cells/tumor membranes was in the order of PG>G-Gly>G17, with no affinity for cholecystokinin CCK8 (28). […] Adenoma and adenocarcinomas tissue sections (from ovarian and colorectal cancers of patients) were positive for Anx A2 expression, while normal tissues were negative (FIGS. 4, 5A-5B). Immortalized intestinal epithelial cell line (IEC-18) are used, which responds to the growth and anti-apoptotic effects of PG peptides (9), for further investigating the biology of interaction of PG with Anx A2. Intra-cellular translocation of labeled PG was examined in IEC-18 cells. […] Using fluoroscense assisted sorting with labeled anti-Anx A2-Abs, presence of extracellular Anx A2 was confirmed on IEC-18 cells (FIG. 6B).

Sequences of proteins named here, by UniProt entry; tags and fusion partners are left off.
UniProt Q07936, whole entry: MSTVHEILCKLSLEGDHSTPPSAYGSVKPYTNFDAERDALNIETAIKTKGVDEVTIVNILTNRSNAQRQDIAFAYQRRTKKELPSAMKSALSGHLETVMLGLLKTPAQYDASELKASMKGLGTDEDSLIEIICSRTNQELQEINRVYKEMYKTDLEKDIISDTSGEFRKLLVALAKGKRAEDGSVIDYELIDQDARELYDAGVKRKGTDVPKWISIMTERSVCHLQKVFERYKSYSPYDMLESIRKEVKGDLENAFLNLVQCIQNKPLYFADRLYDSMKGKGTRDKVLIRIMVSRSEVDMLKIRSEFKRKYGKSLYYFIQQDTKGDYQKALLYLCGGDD

Another test addresses T2, Anx A2 (Rattus norvegicus, UniProt Q07936).
T2 construct: the 36 kDa Anx A2 protein, prepared from cancer cells/tumor membranes; endogenous in cells
As to conditions: Anx A2 prepared from cancer cells/tumor membranes; cited from earlier work.

Take “G17: amidated gastrin (QGPWLEEEEEAYGWMDF) [reference compound]”: the “affinity for CCK2R” value in the test with CCK2R is listed as “much higher affinity”. Also, the “Relative binding affinity (RBA) for the 36 kDa Anx A2 protein, rank order” value with Anx A2 was “PG>G-Gly>G17”.
Regarding “G34: amidated gastrin (QLGPQGPPHLVADPSKKQGPWLEEEEEAYGWMDF; Big gastrin C-terminal amide; UniProt P01350 59-92, looked up)”, in the test with CCK2R, the “affinity for CCK2R” value is “much higher affinity”.

These data come from patent publication US20110085986A1, “Diagnosis and treatment of epithelial cancers using labeled/conjugated progastrin peptides” (priority 2009, published 2011).
